Experimental data from patent publication US5597595A, “Low pH beverage fortified with calcium and vitamin D” (Abbott Laboratories, priority 1995, dated 1997).

**Q.** With Calcium Glycerophosphate [CaGP] as the substance, how does the “solubility at 1 month, pH 3.5” value (pH 3.5) read?
**A.** The value was “remained soluble”.

**Q.** What about the “solubility at 1 month, pH 5.0” value (pH 5) of the same substance?
**A.** Its value is “insoluble”.
